Reference: patent US20260144780A1, “COMPOSITION FOR ENHANCING ADRENOMEDULLIN GENE EXPRESSION” (HOUSE WELLNESS FOODS CORPORATION, priority 2020, published 2026)

Target: human TRPA1 (Homo sapiens, UniProt O75762)
Assay: TRP channel agonist activity, intracellular Ca2+ imaging, hTRPA1 stably expressing cell line
Assay type: cell-based
Conditions: AITC 30 μM
Description: DNA fragments containing nucleotide sequences encoding amino acid sequences of human TRPA1 (Accession No. NM_007332.3) (hereinafter referred to also as hTRPA1), human TRPV1 (Accession No. NM_080704.4) (hereinafter referred to also as hTRPV1) and human TRPM8 (Accession No. NM_024080.5) (hereinafter referred to also as hTRPM8) were inserted into pcDNA5/TO vectors (Invitrogen) to construct an hTRPA1 expression vector, an hTRPV1 expression vector and an hTRPM8 expression vector, respectively.
T-REx™_293 cells (Invitrogen) were cultured in Dulbecco's modified Eagle medium (DMEM, Nacalai Tesque Inc.) containing 10% fetal bovine serum (FBS, Cytiva) up to 60 to 70% confluent growth in the wells of a 6 well plate. T-REx™-293 cells were transfected with an hTRPA1 expression vector, an hTRPV1 expression vector or an hTRPM8 expression vector by use of Lipofectamine LTX (Invitrogen) in accordance with a manual.
To Dulbecco's modified Eagle medium (DMEM, Nacalai Tesque Inc.) containing 10% fetal bovine serum (FBS, Cytiva), hygromycin B and blasticidin S were added so as to have a concentration of […] and 5 μg/ml, respectively. In this manner, a drug selection medium was prepared. Twenty-four hours after completion of transfection, the medium of the above cells was exchanged with the drug selection medium, and thereafter, the cells were cultured for 7 days while exchanging the medium with a fresh medium every two days. Living cells were subcultured and regarded as hTRPA1 stably expressing cell line, hTRPV1 stably expressing cell line and hTRPM8 stably expressing cell line, respectively.
The day before assay, cells of the individual expressing cell lines were removed from the medium with a trypsin/EDTA solution and seeded in the wells of a 96-well black-well plate with a clear bottom so as to obtain a cell density of 5×10^4 cells to 6×10^4 cells/well. At this time, tetracycline was added to the medium so as to obtain a concentration of 1 μg/ml to induce expression of hTRPA1, hTRPV1 or hTRPM8. Culture was carried out in an incubator at 37° C. for 24 hours to 48 hours and then cells were washed with PBS. […] The cells to be subjected to assay were incubated at 31° C. and a test substance solution (100 μl) was added to the cells for assay by use of Flaxstation3 (Molecular Devices) and fluorescence intensity (excitation wavelength: 490 nm, fluorescence wavelength: 525 nm) was measured every 2 seconds up to 120 seconds. […]
TRP channel activation ability of a test substance was calculated as a relative value based on the activation ability of 10 μM ionomycin to each of TRP channels, in accordance with the following calculation formula. […]

`C=CCN=C=S` was tested, and the TRPA1 activation ability (in the absence of A-967079, oxylipin compounds 200 μM and 500 μM, Evaluation 5, FIG. 21) was “showed TRPA1 activation ability”, the TRPA1 activation ability (in the absence of A-967079, purified oxylipins 100 μM and 500 μM, Evaluation 2, FIG. 18) was “showed TRPA1 activation ability” and the TRPA1 activation ability (in the presence of 1 μM A-967079 (TRPA1 antagonist), oxylipin compounds 200 μM and 500 μM, Evaluation 5, FIG. 21) was “did not show TRPA1 activation ability”. For the same molecule, the TRPA1 activation ability (in the presence of 1 μM A-967079 (TRPA1 antagonist), purified oxylipins 100 μM and 500 μM, Evaluation 2, FIG. 18) was “did not show TRPA1 activation ability”.
